Experiment: Dose-ranging pharmacokinetic study of transdermal oxybutynin gel in healthy volunteers (Example 18)
Conditions: plasmatic ratio of metabolite; scheduled time 192; individual subjects
Experimental: The study was an open-label, randomized, parallel, three-treatment, dose-ranging pharmacokinetic study. […] The subjects were aged 19 to 53 (mean 35) years.
The oxybutynin transdermal gel formulation contained 3% w/w of oxybutynin base in a hydroalcoholic non-occlusive matrix including the unique combination of permeation enhancers of the present invention. Three different doses of the gel were administered topically once a day during 20 consecutive days: treatment A consisted in a daily amount of 1.4 g applied gel, corresponding to 42 mg oxybutynin; treatment B consisted in a daily amount of 2.0 g applied gel, corresponding to 60 mg oxybutynin; and treatment C consisted in a daily amount of 2.8 g applied gel, corresponding to 84 mg oxybutynin.

For CCNCC#CCOC(=O)C(O)(c1ccccc1)C1CCCCC1 (stereo not shown) [N-desethyloxybutynin], the “Treatment A/Treatment B Ratio - N-Desethyloxybutynin” value was 0.
